According to patent publication US20250345458A1, “COMPLEXING AGENT SALT FORMULATIONS OF PHARMACEUTICAL COMPOUNDS AT LOW STOICHIOMETRIC RATIOS” (Bexson Biomedical, Inc., priority 2022, published 2025):

Assay: API-CapAcid salts prepared in ethanol, then 70 mg of solid added to 1 mL water (visual)
Type: physicochemical
Settings: Method 2: FB dissolved in 22 mL ethanol, then CapAcid 1 molar equivalent added
Procedure: In order to make sure that the issue of the poorly soluble API-Cap formulations prepared at the 70 mg/mL concentration was not due to a failure of the API-Cap salt to form in aqueous conditions, these salts were also prepared in ethanol. This would ensure better solubility of the API FB ensuring a chance to react with the solubilized CapAcid in solution. […] The resulting solid API-CapAcid salts were then obtained as solids by evaporation of the ethanol, followed by lyophilization. […] Thus, some amines due to poor solubility remained poorly soluble as the Cap Acid salt. […] Whereas those with moderate-to-good solubility were successful. […] API-CapAcid salts likely show improved solubility over standard API-acid salts used in the art (e.g., HCl, HBr, fumarate, acetate, mesylate, etc). Furthermore, given the multiple ionic side chains in SBEBCD, the solubility can be tuned and optimized by using different API:SBEBCD ratios (e.g., 6.5:1, 5:1, 4:1, 3:1, 2:1, 1:1).
In a scintillation vial, a solution of API FB (100 mg) and CapAcid (1 molar equivalent, moisture corrected) was prepared by dissolving Cap Acid in 200 proof ethanol (5 mL) and then adding the freebase API. […] Whether or not the freebase dissolved after the second addition of ethanol, the initial pH, prior to titration, was recorded. The vial was then wrapped in foil and left uncovered in the hood to allow the ethanol to evaporate. […]

pH of the ethanol solution: 7.56
Compound: COc1ccccc1OCCNCC(O)COc1cccc2[nH]c3ccccc3c12 (stereo not shown) [Carvedilol]
